Earlier results as cited in paper PMC6282790, “Incorporating physiologically relevant mobile phases in micellar liquid chromatography for the prediction of human intestinal absorption” (Biomedical Chromatography, 2018).

Design: method as in https://pubchem.ncbi.nlm.nih.gov/, December 2014; unit not given beside the values
Details: literature values; ref https://pubchem.ncbi.nlm.nih.gov/, December 2014

## nicotinic acid
  PSA: 50.2
